# OPERA 2.9 data: water solubility values

Data: OPERA 2.9 data sets, kmansouri/OPERA on GitHub.

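These are experimental values that the OPERA curators gathered from public databases to train and test their QSAR models. A listed value is a point estimate from one report or more. Method and conditions are not stated for these values. Where a salt, mixture or single isomer is drawn, the source does not say that exactly this form was tested. Some entries may be limits or estimates that an upstream database listed as plain numbers.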

Solubility in water is on a log10 molar scale (set defined at 25 °C).

SMILES,log S (log10 mol/L)
CCCCC(CC)COP(=S)([S-])OCC(C)C.CCCCC(CC)COP(=S)([S-])OCC(C)C.[Zn+2] (configuration not stated),-2.958
CC(=O)OCC1=C(C(=O)O)N2C(=O)[C@@H](N)[C@H]2SC1,-2.649
FC(F)OC(F)(F)C(F)Cl (configuration not stated),-1.515
c1cc(N(CC2CO2)CC2CO2)ccc1OCC1CO1 (configuration not stated),-1.919
CC(C)(c1ccccc1)c1cc(-n2nc3ccccc3n2)c(O)c(C(C)(C)c2ccccc2)c1,-7.5
COc1ccccc1OC,-1.445
O=C1NC(=O)C(=O)C(=O)N1,-1.25
CC(=O)Nc1ccc(Cl)cc1,-2.84
N#C[C@@H](O)c1cccc(Oc2ccccc2)c1,-3.327
FC(F)(F)/C=C\C(F)(F)F,-2.55
C=CC[C@]1(O)CC[C@H]2[C@@H]3CCC4=CCCC[C@@H]4[C@H]3CC[C@@]21C,-5.731
ClC1=C(Cl)C2(Cl)C3CC=CC3C1(Cl)C2(Cl)Cl (configuration not stated),-5.39
O=[N+]([O-])c1cc(C(F)(F)F)c(Cl)c([N+](=O)[O-])c1Nc1ncc(C(F)(F)F)cc1Cl,-5.98
Oc1ccc(O)c(Cl)c1,0.805
C[C@H](NC(=O)[C@H](C)NC(=O)[C@@H](N)CCP(C)(=O)O)C(=O)[O-].[Na+],0.299
CN1CCC(Cl)CC1,-1.94
ClC1=C(Cl)C2(Cl)C3C(Cl)OC(Cl)C3C1(Cl)C2(Cl)Cl (configuration not stated),-6.64
CC(C)CC(C)Nc1ccc(Nc2ccccc2)cc1 (configuration not stated),-5.294
C[C@]12CCC3C(CC[C@]4(O[C@@H]5OC(CO)[C@@H](O)C(O)C5O)C=CCC[C@]34C=O)[C@@]1(O)CC[C@@H]2c1ccc(=O)oc1 (stereo not given in full),-2.226
CCCC(=O)NC(Cc1ccc(O)cc1)C(=O)NCCCCNCCCNCCCN.O=C(O)C(F)(F)F.O=C(O)C(F)(F)F.O=C(O)C(F)(F)F (configuration not stated),-1.891
COc1ccc(C(=CC(=O)N2CCOCC2)c2ccc(Cl)cc2)cc1OC,-4.13

The first 2 entries again:

| SMILES | log S (log10 mol/L) |
|---|---|
| CCCCC(CC)COP(=S)([S-])OCC(C)C.CCCCC(CC)COP(=S)([S-])OCC(C)C.[Zn+2] (configuration not stated) | -2.958 |
| CC(=O)OCC1=C(C(=O)O)N2C(=O)[C@@H](N)[C@H]2SC1 | -2.649 |